Results published in patent publication US4598081A, “1,3-dioxo-1H-benz(de)isoquinoline-2(3H) butyric acid, pharmacologically acceptable salts thereof and compositions containing the same for treatment of diabetes mellitus complications” (Nauchno-Issledovatelsky Institut Endokrinologii I Obmena …, priority 1985, dated 1986).

Assays:
[1] = tested on: rats having alloxan diabetes; assay: histological examination and biomicroscopy in rats with prolonged alloxan diabetes; type: in vivo, Wistar rats; conditions: 50 mg per kg per day peroral, 30 days
Protocol: The diabetes was caused by a single-time hypodermic injection of alloxan ("Chemapol") in a dose of 150 mg per kg of body weight.
Biomicroscopy of the conjunctiva was effected with the aid of a microscope fitted with a camera and a flash lamp.
For histological examination pieces of the kidney, liver and miocardium were fixed in 10% neutral formaline dehydrated in alcohol, and the paraffin sections were stained with hematoxylin and eosin, and also by the Van-Gizon method.

in vivo = conditions: po
Protocol: Mature animals both male and female, weighting 18 to 22 g (white mice), 180 to 220 g (rats), 11 to 15 kg (dogs) were used for said experiments.
The drug was introduced in the form of a starch suspension through a gastric tube.
Each dose being examined was tested on 5-6 animals.
LD50 determined by the Lichfield and Wilcoxon method, or the Van der Waerden method was used as an index of high toxicity. The animals were kept under observation for 5 days.

## O=C(O)CCCN1C(=O)c2cccc3cccc(c23)C1=O [1,3-dioxo-1H-benz(de)isoquinoline-2(3H)butyric acid] [listing 1 of 2 here]
[1]
  therapeutic effect (histological examination): marked therapeutic effect

## O=C(O)CCCN1C(=O)c2cccc3cccc(c23)C1=O [1,3-dioxo-1H-benz(de)isoquinoline-2(3H)butyric acid] [listing 2 of 2 here]
In vivo; dog
  LD50 at 120 h: 3800 mg/kg
In vivo; mouse
  LD50 at 120 h: 3700 mg/kg
In vivo; rat
  LD50 at 120 h: 4000 mg/kg
